Molecular target: rat NPFF1 receptor (Rattus norvegicus, UniProt Q9EP86)
Assay: [125I]D-Tyr-NPFF radioligand binding, membranes of COS-7 cells transiently expressing cloned rat NPFF1
Set-up: expressed in transfected cells; host or cells: COS-7 (transient)
Settings: competition of [125I]D-Tyr-NPFF binding; COS-7 membranes
Protocol: Transfected cells from culture flasks are scraped into 5 ml of 20 mM Tris-HCl, 5 mM EDTA, pH 7.5, and lysed by sonication. The cell lysates are centrifuged at 1000 rpm for 5 min. at 4° C., and the supernatant is centrifuged at 30,000×g for 20 min. at 4° C. […] Optimal membrane suspension dilutions, defined as the protein concentration required to bind less than 10% of the added radioligand, […], unlabeled compounds, and binding buffer to a final volume of 250 μl. In equilibrium saturation binding assays membrane preparations are incubated in the presence of increasing concentrations of [^3H]-labeled compound. […] Competition assay: 50 pM radioligand, 10-12 points. Binding reaction mixtures are incubated for 2 hr at 25° C., and the reaction stopped by filtration through a double layer of GF filters treated with 0.1% polyethyleneimine, using a cell harvester. Wash buffer: 50 mM Tris-HCl, 0.1% BSA. Radioactivity may be measured by scintillation counting and data are analyzed by a computerized non-linear regression program. Non-specific binding is defined as the amount of radioactivity remaining after incubation of membrane protein in the presence of 1 μM final concentration […]. Protein concentration may be measured by the Bradford method using Bio-Rad Reagent, with bovine serum albumin as a standard. […]

By UniProt entry, the sequences of proteins in these tests, tags left out. Where a name states a change or a piece, a line headed by the entry shows the natural chain unless it says otherwise.
UniProt Q9EP86: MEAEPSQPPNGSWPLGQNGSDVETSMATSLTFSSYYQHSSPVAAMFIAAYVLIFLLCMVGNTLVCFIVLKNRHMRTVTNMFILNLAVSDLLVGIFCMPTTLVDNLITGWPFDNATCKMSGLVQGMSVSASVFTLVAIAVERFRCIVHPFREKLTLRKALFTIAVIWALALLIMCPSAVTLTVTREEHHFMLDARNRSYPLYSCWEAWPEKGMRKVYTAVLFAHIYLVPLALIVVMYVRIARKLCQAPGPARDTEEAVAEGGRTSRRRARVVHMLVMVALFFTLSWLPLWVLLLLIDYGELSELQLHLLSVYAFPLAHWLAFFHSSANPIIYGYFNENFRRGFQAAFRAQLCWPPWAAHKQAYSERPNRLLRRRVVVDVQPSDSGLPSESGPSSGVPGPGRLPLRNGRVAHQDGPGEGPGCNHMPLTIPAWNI

pKi for cloned rat NPFF1 receptor binding in COS-7 cells, MEAN: ≤ 5
Structure (SMILES): CC(C)C[C@H](NC(=O)CNC(=O)[C@H](C)NC(=O)[C@H](CC(C)C)NC(=O)[C@H](CCCNC(=N)N)NC(=O)[C@H](Cc1c[nH]cn1)NC(=O)[C@@H](NC(=O)[C@@H](NC(=O)[C@@H]1CSSC[C@H](NC(=O)[C@H](C)N)C(=O)N[C@@H](CC(=O)O)C(=O)N[C@@H]([C@@H](C)O)C(=O)N[C@@H](C)C(=O)N[C@@H]([C@@H](C)O)C(=O)N1)C(C)C)[C@@H](C)O)C(=O)N[C@@H](CC(C)C)C(=O)N[C@@H](CO)C(=O)N[C@@H](CCCNC(=N)N)C(=O)N[C@@H](CO)C(=O)NCC(=O)NCC(=O)N[C@H](C(=O)N[C@H](C(=O)N[C@@H](CCCCN)C(=O)N[C@@H](CC(N)=O)C(=O)N[C@@H](CC(N)=O)C(=O)N[C@@H](Cc1ccccc1)C(=O)N[C@H](C(=O)N1CCC[C@H]1C(=O)N[C@H](C(=O)N[C@@H](CC(N)=O)C(=O)N[C@H](C(=O)NCC(=O)N[C@@H](CO)C(=O)N[C@@H](CCCCN)C(=O)N[C@@H](C)C(=O)N[C@@H](Cc1ccccc1)C(N)=O)C(C)C)[C@@H](C)O)C(C)C)C(C)C)C(C)C [CGRP]
